Results published in the supplement of paper PMC12455559.

How the values were obtained:
[1] = PET hydrolysis, aromatic products released after 48 h (umol product/mg enzyme); higher = more PET depolymerization activity
Method: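 HTP-purified, SUMO-cleaved, tagless PET hydrolase candidates (5 ug, 1.43 mg/g PET) were incubated 48 h without shaking with 3.5 mg amorphous PET film (aFilm) or crystalline PET powder (cryPow) in 0.5 mL buffer: NaCitrate pH 4.5/5.5, NaPhosphate pH 6.5/7.5, glycine pH 8.5. Incubation was at 40 or 60 C. Aromatic products (TPA, MHET, BHET) in the supernatant were quantified by UV absorbance at 260/280 nm relative to buffer blanks and expressed per mg enzyme. LCC-ICCG was the positive control on every plate.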

[2] = purified protein yield per well (BCA); higher = higher soluble expression
Method: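 Candidate PET hydrolases were expressed in E. coli C41(DE3) in 2 mL autoinduction cultures in 24-deep-well plates, Ni-bead purified and released by SUMO protease cleavage on an OT-2 robot. Yield per well was measured by BCA; values below 25 ug (0.1 mg/mL) are below the detection threshold. Melting temperature was measured by differential scanning fluorimetry with Sypro Orange, ramping from 25 C at 0.3 C/step.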

GSLGAMVDTLSGLSSEQGQSGDMTIEEDSATHIKFSKRDEDGKELAGATMELRDSSGKTISTWISDGQVKDFYLYPGKYTFVETAAPDGYEVATAITFTVNEQGQVTVNGKATKGDAHIDGSGASQTNPYARGPNPTAASLEASAGPFTVRSFTVSRPSGYGAGTVYYPTNAGGTVGAIAIVPGYTARQSSIKWWGPRLASHGFVVITIDTNSTFDYPSSRSSQQMAALRQVASLNGDSSSPIYGKVDTARMGVMGHSMGGGASLRSAANNPSLKAAIPQAPWDSQTNFSSVTVPTLIFACENDSIAPVNSHALPIYDSMSRNAKQFLEINGGSHSCANSGNSNQALIGKKGVAWMKRFMDNDTRYSTFACENPNSTAVSDFRTANCSASGGSGENLYFQGAMVDTLSGLSSEQGQSGDMTIEEDSATHIKFSKRDEDGKELAGATMELRDSSGKTISTWISDGQVKDFYLYPGKYTFVETAAPDGYEVATAITFTVNEQGQVTVNGKATKGDAHID [TEP080]
PET hydrolysis, [1]
Details | pH 4.5 | pH 5.5 | pH 6.5 | pH 7.5
substrate: aFilm, 40 °C | < 3 | < 3 | 5 | 13.5
substrate: aFilm, 60 °C | < 3 | < 3 | 27.5 | 62
substrate: cryPow, 40 °C | < 3 | 4 | 21 | 33.5
substrate: cryPow, 60 °C | < 3 | 8 | 29 | 41.5

Details | purified protein yield per well [µg]
[2] | 263
